Assay [1] deals with T1, Interleukin-1 receptor-associated kinase 4 (Homo sapiens, UniProt Q9NWZ3).
The target in assay [2] is T1, Interleukin-1 receptor-associated kinase 4. The source holds these as a separate data set.

The chains behind the UniProt entries cited, without tags or fusion partners.
UniProt Q9NWZ3, whole entry: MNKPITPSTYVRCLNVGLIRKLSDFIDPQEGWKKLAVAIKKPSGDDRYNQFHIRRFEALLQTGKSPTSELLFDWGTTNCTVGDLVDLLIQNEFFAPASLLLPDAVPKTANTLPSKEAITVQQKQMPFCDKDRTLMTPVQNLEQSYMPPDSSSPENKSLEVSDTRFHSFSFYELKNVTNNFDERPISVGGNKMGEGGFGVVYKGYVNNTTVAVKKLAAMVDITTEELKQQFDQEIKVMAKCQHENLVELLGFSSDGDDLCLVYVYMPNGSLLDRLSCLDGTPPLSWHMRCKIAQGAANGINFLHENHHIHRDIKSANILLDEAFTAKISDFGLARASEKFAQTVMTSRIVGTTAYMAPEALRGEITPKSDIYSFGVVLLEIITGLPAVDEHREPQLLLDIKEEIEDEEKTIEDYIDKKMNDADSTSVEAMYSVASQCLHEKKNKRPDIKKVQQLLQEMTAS

For the compound `O=c1[nH]c(N2CCOCC2)nc(N[C@@H]2CCCNC2)c1-c1nc2ccccc2s1`, the results for the 50% inhibitory concentration (IC50) in assay [1] and in assay [2] were 4.2 µM and 1.9 µM, respectively.

Source of the values: ChEMBL document CHEMBL3621203, “Discovery and Structure Enabled Synthesis of 2,6-Diaminopyrimidin-4-one IRAK4 Inhibitors” (ACS Med Chem Lett, 2015).
